Reference: ChEMBL document CHEMBL1135511, “Structure activity of 3-aryl-1,3-diketo-containing compounds as HIV-1 integrase inhibitors” (J Med Chem, 2002)

Legend:
[1] = target: T1, Human immunodeficiency virus type 1 integrase (Human immunodeficiency virus 1, UniProt Q7ZJM1); assay: Inhibitory effect on strand transfer of proximal DNA into host DNA in an extracellular HIV-1 integrase assay in experiment 2
[2] = target: T1, Human immunodeficiency virus type 1 integrase; assay: Inhibitory effect on strand transfer of proximal DNA into host DNA in an extracellular HIV-1 integrase assay in experiment 1
[3] = target: T1, Human immunodeficiency virus type 1 integrase

IC50 [1]: 25 µM | IC50 [2]: 24.2 µM | IC50 [3]: > 100 µM
Structure (SMILES): O=C(O)C(=O)/C=C(\O)c1ccccc1
